This is an account of results in US20240376149A1, “Novel Modulators of GABABR1a” (VIB VZW, priority 2021, published 2024).

Amino acid sequences for entries named in this document (tags omitted). Residues count along the entry.
UniProt Q9UBS5, 26-96: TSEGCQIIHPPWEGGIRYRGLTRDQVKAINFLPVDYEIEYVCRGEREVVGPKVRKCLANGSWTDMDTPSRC

In test [1] the target is T1, GABABR1a-SD1 (SD1-FITC-9mer complex) (Homo sapiens, UniProt Q9UBS5).
T1 construct: The synthetic gene encoding for residues 26-96 of the Sushi1 protein was cloned into a pFloat-SUMO vector; His-SUMO (with 3C protease site) (N, cleaved yes); made in house; host or cells: E. coli BL21(DE3)
As to the kind of experiment: Fluorescence polarization (FP) competition assay with FITC-9mer. Type of test: binding. The following applies: for inhibition at 50 µM: peptide at 50 μM, inhibition of FITC-9mer binding to SD1. On the procedure: Intrigued by the surprising results of the 5-mer, it was decided to set up a medium- to high-throughput screen to optimize the 5-mer sequence. Several assays were tested to find a reproducible, robust and cost-effective assay that is also suitable for high-throughput screening. A fluorescence polarization (FP) assay was selected. FP measurements are well-known for receptor binding assays. The assay is based on the rotational movement of fluorescently labelled molecules in solution. […] The FP assay was optimized using the FITC labelled sAPP 9-mer (FIG. 1).
To screen for GABABR1a binders using unlabelled test compounds, the assay was turned into a competition assay using FITC-9mer. […] To validate this inhibitor assay, the IC50 values were determined of the 17-mer, 9-mer, 5-mer as well as those from 3 negative controls: 10-mer, scrambled 17-mer and a scrambled 9-mer (FIG. 2).
To determine if the peptides of this application were able to disrupt the SD1-9-mer complex, each peptide (in single point or dose-response curve) tested was incubate with SD1 protein for 1 h at RT. After this initially incubation, FITC-9mer was added to the previous mix and incubated during 2 h at RT. The signal intensity was measure in an appropriate plate reader using the following settings: Number of flashes per well: 200; Excitation: F482-16; Dichroic filter: FLP 504; Emission A F530-40; Gain A: 738, Gain B: 736. The assay was conducted in a 384-well plate.

Test [2] has as its system acute mouse hippocampal slices, CA3-CA1 Schaffer collateral (SC) synapses. The experiment in a line: Ex vivo fEPSP short-term facilitation in acute hippocampal slices (multi-electrode array). As to conditions: for Ex vivo assay 10 μM (short-term facilitation) / Increase in short-term facilitation after preincubation with GABABR antagonist CGP-54626: peptide 10 μM; for Ex vivo assay 10 μM (short-term facilitation): vs scrambled negative control at 10 μM; for Ex vivo assay 1 μM (short-term facilitation): peptide 1 μM, vs scrambled control peptide, burst of 5 stimuli at 20 Hz; for Increase in short-term facilitation after preincubation with GABABR antagonist CGP-54626: slices preincubated with CGP-54626. Type of test: cell-based. As to the method: The effect of a selection of GABABR1a-SD1 binders on synaptic transmission was tested in an ex vivo experiment using acute mouse hippocampal slices comprising an intact circuit of CA3-CA1 Schaffer collateral (SC) synapses. In short, a burst of 5 stimuli at 20 Hz was applied to Schaffer collaterals to induce short-term facilitation, which inversely correlates with the probability of neurotransmitter release.
Recordings were done in C57BL/6J mice (2 months old). For tissue preparation, mice were anesthetized with isoflurane and rapidly decapitated to prepare acute 300 μm-thick parasagittal brain slices on a Leica VT1200 vibratome. Slicing was performed in cold sucrose based cutting solution (ACSF) that consisted of (in mM): 87 NaCl, 2.5 KCl, 1.25 NaH2PO4, 10 glucose, 25 NaHCO3, 0.5 CaCl2, 7 MgCl2, 75 sucrose, 1 kynurenic acid, 5 ascorbic acid, 3 pyruvic acid (pH 7.4 with 5% CO2/95% O2). Slices were allowed to recover at 34° C. for 35 min, and subsequently maintained at room temperature for at least 30 min before use. Before recordings, slices were preincubated in artificial cerebrospinal fluid (ACSF, 119 mM NaCl, 2.5 mM KCl, 1 mM NaH2PO4, 11 mM glucose, 26 mM NaHCO3, 4 mM MgCl2 and 4 mM CaCl2, pH 7.4) containing peptide of interest or scrambled/control peptide (1 or 10 uM). Preincubation was performed in the multielectrode array recording chamber (60MEA200/30iR-Ti-gr, Multichannel Systems) for 60 min at 32° C., using custom-made local carbogenation rings (5% CO2/95% 02). Field excitatory post-synaptic potentials (fEPSPs) were recorded from Schaffer collateral-CA1 synapses by stimulating and recording from the appropriate (visually identified) electrodes (MEA-2100, Multichannel Systems). Input-output curves were recorded for each slice by applying single-stimuli ranging from 500 to 2750 mV with 250 mV increments. Stimulus strength that corresponds to 35% of maximal response in the input-output curve was used for following recordings. Train stimulations of 10, 20 and 50 Hz (5 stimuli per train) were recorded with 10 minutes intervals. Recordings were processed and analysed using Multi Channel Experimenter software (Multi Channel Systems).

In the case of `CC[C@H](C)[C@H](NC(=O)[C@@H](N)CC(N)=O)C(=O)N[C@@H](Cc1c[nH]c2ccccc12)C(=O)N[C@@H](Cc1c[nH]c2ccccc12)C(=O)N[C@@H](CO)C(=O)O` [VIB_P66, NIWWS], the inhibition at 50 µM in test [1] turned out to be 66.4%.

As for `CC(C)[C@H](NC(=O)[C@@H](N)CC(=O)O)C(=O)N[C@@H](Cc1ccc(O)cc1)C(=O)N[C@@H](Cc1c[nH]c2ccccc12)C(=O)NCC(=O)O` [VIB_P53, DVYWG], the inhibition at 50 µM in test [1] was 33.5%.

`CC(C)[C@H](NC(=O)CN)C(=O)N[C@@H](Cc1ccc(O)cc1)C(=O)N[C@@H](Cc1c[nH]c2ccccc12)C(=O)N[C@@H](CO)C(=O)O` [VIB_P60, GVYWS]: in test [1], the inhibition at 50 µM was found to be 47.5%.

For `CC[C@H](C)[C@H](NC(=O)CN)C(=O)N[C@@H](Cc1ccc(O)cc1)C(=O)N[C@@H](Cc1c[nH]c2ccccc12)C(=O)N[C@@H](CO)C(=O)O` [VIB_P47, GIYWS], the inhibition at 50 µM in test [1] came out at 53.4%. For the same compound, the “Ex vivo assay 10 μM (short-term facilitation)” value (“Ex vivo assay 10 μM” for short) is given as “Active” in test [2] and “statistically significant increase in short-term facilitation” in test [2] (listed as P47).

`CC[C@H](C)[C@H](NC(=O)[C@@H]1CCCN1)C(=O)N[C@@H](Cc1ccc(O)cc1)C(=O)N[C@@H](Cc1c[nH]c2ccccc12)C(=O)N[C@@H](CO)C(=O)O` [VIB_P49, PIYWS]: in test [1], the inhibition at 50 µM was 25%.

For `CC(C)[C@H](NC(=O)[C@@H](N)CC(=O)O)C(=O)N[C@@H](Cc1c[nH]c2ccccc12)C(=O)N[C@@H](Cc1c[nH]c2ccccc12)C(=O)NCC(=O)O` [VIB_P33, DVWWG], the inhibition at 50 µM in test [1] stood at 66%.

Turning to `CC(C)[C@H](NC(=O)[C@@H](N)CC(N)=O)C(=O)N[C@@H](Cc1c[nH]c2ccccc12)C(=O)N[C@@H](Cc1c[nH]c2ccccc12)C(=O)NCC(=O)O` [VIB_P56, NVWWG], the inhibition at 50 µM in test [1] is 17.9%.

On to `CC[C@H](C)[C@H](NC(=O)[C@@H](N)CC(N)=O)C(=O)N[C@@H](Cc1c[nH]c2ccccc12)C(=O)N[C@@H](Cc1c[nH]c2ccccc12)C(=O)NCC(=O)O` [VIB_P65, NIWWG], for which, in test [1], the inhibition at 50 µM was 41.4%.

As for `CC[C@H](C)[C@H](NC(=O)[C@@H](N)CC(=O)O)C(=O)N[C@@H](Cc1c[nH]c2ccccc12)C(=O)N[C@@H](Cc1c[nH]c2ccccc12)C(=O)N[C@@H](CO)C(=O)O` [VIB_P34, DIWWS], the inhibition at 50 µM in test [1] is 81.9%. Further, in test [2], the “Ex vivo assay 1 μM (short-term facilitation)” value (from here on “Ex vivo assay 1 μM”) is given as “Active”, the “Ex vivo assay 10 μM” value was “Active” and the “Increase in short-term facilitation after preincubation with GABABR antagonist CGP-54626” value is “could not be detected anymore”. Besides, in test [2] (listed as P34), the “Ex vivo assay 1 μM” value is on record as “statistically significantly increase in facilitation” and the “Ex vivo assay 10 μM” value is listed as “statistically significant increase in short-term facilitation”.

For `NC(=O)C[C@H](N)C(=O)N[C@@H](Cc1ccccc1)C(=O)N[C@@H](Cc1ccc(O)cc1)C(=O)N[C@@H](Cc1c[nH]c2ccccc12)C(=O)N[C@@H](CO)C(=O)O` [VIB_P58, NFYWS], the inhibition at 50 µM in test [1] was -7%.

`CC[C@H](C)[C@H](NC(=O)[C@@H](N)CC(N)=O)C(=O)N[C@@H](Cc1ccc(O)cc1)C(=O)N[C@@H](Cc1c[nH]c2ccccc12)C(=O)NCC(=O)O` [VIB_P68, NIYWG]: the inhibition at 50 µM in test [1] came out at 15.9%.

`CC[C@H](C)[C@H](NC(=O)[C@@H](N)CC(=O)O)C(=O)N[C@@H](Cc1ccccc1)C(=O)N[C@@H](Cc1c[nH]c2ccccc12)C(=O)N[C@@H](CO)C(=O)O` [VIB_P35, DIFWS]: in test [1], the inhibition at 50 µM turned out to be 55.9%.

`CC[C@H](C)[C@H](NC(=O)[C@@H](N)CC(=O)O)C(=O)N[C@@H](Cc1ccc(O)cc1)C(=O)N[C@@H](Cc1c[nH]c2ccccc12)C(=O)N[C@@H](CO)C(=O)O` [VIB_P43, DIYWS]: in test [1], the inhibition at 50 µM amounted to 48.6%. In addition, in test [2], the “Ex vivo assay 10 μM” value was “Active” and the “Increase in short-term facilitation after preincubation with GABABR antagonist CGP-54626” value is “could not be detected anymore”. Moreover, the “Ex vivo assay 10 μM” value in test [2] (listed as P43) is reported as “statistically significant increase in short-term facilitation”.

In the case of `CC(C)[C@H](NC(=O)[C@@H](N)CC(N)=O)C(=O)N[C@@H](Cc1c[nH]c2ccccc12)C(=O)N[C@@H](Cc1c[nH]c2ccccc12)C(=O)N[C@@H](CO)C(=O)O` [VIB_P48, NVWWS], the inhibition at 50 µM in test [1] is 33.5%.

With `CC[C@H](C)[C@H](NC(=O)[C@@H](N)CC(=O)O)C(=O)N[C@@H](Cc1c[nH]c2ccccc12)C(=O)N[C@@H](Cc1c[nH]c2ccccc12)C(=O)NCC(=O)O` [VIB_P29, DIWWG], in test [1], the inhibition at 50 µM was determined as 75%. In addition, the “Ex vivo assay 1 μM” value in test [2] is listed as “Active”; in test [2] (listed as P29), “statistically significantly increase in facilitation”.

On to `CC[C@H](C)[C@H](NC(=O)[C@@H](N)CC(=O)O)C(=O)N[C@@H](Cc1c[nH]cn1)C(=O)N[C@@H](Cc1c[nH]c2ccccc12)C(=O)N[C@@H](CO)C(=O)O` [VIB_P37, DIHWS], for which, in test [1], the half-maximal inhibitory concentration (IC50) is 35.5 µM and the inhibition at 50 µM stood at 20%.

As for `CC(C)[C@H](NC(=O)[C@@H](N)CC(=O)O)C(=O)N[C@@H](Cc1c[nH]c2ccccc12)C(=O)N[C@@H](Cc1c[nH]c2ccccc12)C(=O)N[C@@H](CO)C(=O)O` [VIB_P39, DVWWS], in test [1], the IC50 was 13.9 µM and the inhibition at 50 µM came out at 85.5%.

In the case of `CC(C)[C@H](NC(=O)[C@@H](N)CO)C(=O)N[C@@H](Cc1ccc(O)cc1)C(=O)N[C@@H](Cc1c[nH]c2ccccc12)C(=O)N[C@@H](CO)C(=O)O` [VIB_P41, SVYWS], the inhibition at 50 µM in test [1] is 5.28%.

As for `CC[C@H](C)[C@H](NC(=O)[C@@H](N)CC(N)=O)C(=O)N[C@@H](Cc1ccc(O)cc1)C(=O)N[C@@H](Cc1c[nH]c2ccccc12)C(=O)N[C@@H](CO)C(=O)O` [VIB_P63, NIYWS], the inhibition at 50 µM in test [1] came out at 19.4%.

As to `CC[C@H](C)[C@H](NC(=O)[C@@H](N)CC(=O)O)C(=O)N[C@@H](Cc1ccc(O)cc1)C(=O)N[C@@H](Cc1c[nH]c2ccccc12)C(=O)NCC(=O)O` [VIB_P42, DIYWG], the inhibition at 50 µM in test [1] was found to be 47.9%.
